Assay results from ChEMBL document CHEMBL1138080, “Design and synthesis of novel 2-amino-5-hydroxyindole derivatives that inhibit human 5-lipoxygenase” (J Med Chem, 2006).

What was measured:
[1] = biological target: T1, Polyunsaturated fatty acid 5-lipoxygenase (Homo sapiens) (UniProt P09917); assay: Inhibition of 5-LOX in A-23187-stimulated […] at 10 uM
T1 sequence (whole entry): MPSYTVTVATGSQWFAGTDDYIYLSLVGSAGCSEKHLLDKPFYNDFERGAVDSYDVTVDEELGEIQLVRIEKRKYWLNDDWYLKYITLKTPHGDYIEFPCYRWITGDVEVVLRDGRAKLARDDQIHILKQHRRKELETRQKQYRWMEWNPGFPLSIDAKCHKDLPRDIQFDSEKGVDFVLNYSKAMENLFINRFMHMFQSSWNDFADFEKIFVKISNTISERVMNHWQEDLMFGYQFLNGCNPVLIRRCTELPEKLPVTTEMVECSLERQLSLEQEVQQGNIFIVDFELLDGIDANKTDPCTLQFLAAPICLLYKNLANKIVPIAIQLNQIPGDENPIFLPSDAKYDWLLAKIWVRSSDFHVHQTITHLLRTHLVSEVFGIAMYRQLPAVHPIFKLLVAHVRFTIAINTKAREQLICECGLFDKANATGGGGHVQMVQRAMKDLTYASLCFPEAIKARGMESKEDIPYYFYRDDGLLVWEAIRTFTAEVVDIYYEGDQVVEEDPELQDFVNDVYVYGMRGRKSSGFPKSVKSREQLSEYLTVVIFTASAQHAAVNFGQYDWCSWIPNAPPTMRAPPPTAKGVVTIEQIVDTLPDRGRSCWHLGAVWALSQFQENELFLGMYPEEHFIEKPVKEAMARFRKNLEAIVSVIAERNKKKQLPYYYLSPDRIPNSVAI
Method in brief: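 Freshly isolated human PMNL (10^7 in 1 mL PBS with 1 mg/mL glucose and 1 mM CaCl2) were preincubated with compound at 37 °C. They were then stimulated with 2.5 µM ionophore A23187 for 10 min at 37 °C and stopped with methanol, with prostaglandin B1 added as standard. 5-LO products were measured as mean ± SE, n = 3-4 (10 µM screen or IC50).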

[2] = biological target: T1, Polyunsaturated fatty acid 5-lipoxygenase (Homo sapiens); assay: Inhibition of 5-LOX at 10 uM
Method in brief: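 5-LO was human recombinant, expressed in E. coli JM 109 (pT3-5LO). Lysis, ammonium sulfate precipitation and a 100000g spin gave the S100 supernatant used as enzyme source. The assay contained 1 mM ATP and test compound or DMSO vehicle, and the enzyme was incubated with 20 µM arachidonic acid. The screen used 10 µM, with concentration-response for IC50.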

CCOC(=O)c1c(Nc2cccc(Cl)c2)[nH]c2ccc(O)cc12
inhibition [1]: 90%
inhibition [2]: 97%
